Results on 1 compound are retold here after PubChem BioAssay AID1257 (The Scripps Research Institute Molecular Screening Center, 2008).

Amino acid sequences for entries named in this document (tags omitted).
UniProt P49146, whole entry, looked up: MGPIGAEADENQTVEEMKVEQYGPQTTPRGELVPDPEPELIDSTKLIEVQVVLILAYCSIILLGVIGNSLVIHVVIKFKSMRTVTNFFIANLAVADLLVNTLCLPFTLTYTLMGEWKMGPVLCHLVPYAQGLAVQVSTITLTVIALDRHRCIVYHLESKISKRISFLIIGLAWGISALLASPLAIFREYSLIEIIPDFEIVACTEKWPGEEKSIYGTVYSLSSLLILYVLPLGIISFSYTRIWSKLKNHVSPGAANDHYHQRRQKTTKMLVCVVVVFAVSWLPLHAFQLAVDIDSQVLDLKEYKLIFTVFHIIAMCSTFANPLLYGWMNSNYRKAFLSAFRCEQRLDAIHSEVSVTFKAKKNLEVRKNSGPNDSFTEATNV

The list shows a part of the results, in another mix than the full data. Calls of active or inactive are those of the source.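 The calls were made as follows: active = mean inhibition of triplicate wells above the hit cutoff set in the primary screen (cut at about 17% in these data); inactive = the rest.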

The target in this assay is Neuropeptide Y receptor type 2 (Homo sapiens) (UniProt P49146). Description: NPY-Y2 receptor antagonists, retest of hits, confirmation, HEK293-CNG cells, membrane potential fluorescence, triplicate (AID 1257).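 Also: 0% = DMSO with NPY challenge and 100% = BIIE0246 high control.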 The following applies: HEK293 NPY-Y2 CNG channel, at 2.8 µM, stronger effect = higher value. In short, it runs like this: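 Material: HEK293 cells expressing NPY-Y2 receptor and CNG channel; Control set: BIIE0246 as high control, DMSO as low control; Measured by: membrane potential dye fluorescence; Also added: NPY 8 nM plus isoproterenol 1 µM, Ro 20-1724 25 µM; Doses: single nominal compound dose of 2.8 µM; Times: 60 min NPY incubation, room temperature.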

With `CCc1nc2c(n1)c1c(non1O)c1c2no[n+]1[O-]`, the inhibition is active: 54.9%.

The term inhibition denotes the relative decrease from the control value, in per cent.
